Measured values published in ChEMBL document CHEMBL1129084, “Structure-activity relationships for macrocyclic peptidomimetic inhibitors of HIV-1 protease” (Bioorg Med Chem Lett, 1996).

Target: Human immunodeficiency virus type 1 protease (Human immunodeficiency virus 1, UniProt Q72874)

CC[C@H](C)[C@H](NC(=O)[C@@H]1CCCN1C[C@@H](O)[C@H]1Cc2ccc(cc2)OCCCC(=O)NC(CC(N)=O)C(=O)N1)C(=O)N[C@H](C(N)=O)C(C)C (stereo partly specified)
Ki: 470 nM
